Literature values as cited in US20100239707A1 (priority 2007, published 2010).

Conditions: in vivo

lipopolysaccharide [LPS]
LPS needed for a strongly lethal induction: 10 µg/kg
